pEC50: −log10 of the molar value.
Legend:
CRF2R = molecular target: T1, CRF2R (Homo sapiens, UniProt Q13324); test: CRF2R agonist activation (EC50 / Emax), called comparative CRF binding; format: cell-based; conditions: for Emax: read-out: CRF2R Emax
T1 sequence (Q13324 1-411): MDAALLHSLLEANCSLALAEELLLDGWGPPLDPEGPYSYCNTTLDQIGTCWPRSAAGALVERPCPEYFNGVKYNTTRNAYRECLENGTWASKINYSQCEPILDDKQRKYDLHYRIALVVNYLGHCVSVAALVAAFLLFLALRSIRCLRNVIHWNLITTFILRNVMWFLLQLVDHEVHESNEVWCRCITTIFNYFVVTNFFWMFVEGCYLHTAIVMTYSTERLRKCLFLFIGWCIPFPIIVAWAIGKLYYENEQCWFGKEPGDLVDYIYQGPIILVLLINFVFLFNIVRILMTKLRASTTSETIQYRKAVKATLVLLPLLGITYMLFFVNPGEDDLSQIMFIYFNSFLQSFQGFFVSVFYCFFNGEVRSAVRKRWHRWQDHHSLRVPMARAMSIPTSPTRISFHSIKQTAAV
In short: (§1)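 Agonism is scored from cAMP rise, assayed in lysates or through CRE-driven reporter expression, after peptide contact with cells bearing human CRF2R or CRF1R, compared against vehicle-treated cells.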

CRF1R = molecular target: T2, CRF1R (Homo sapiens, UniProt P34998); test: CRF1R agonist activation (EC50 / Emax), called comparative CRF binding; format: cell-based; conditions: for Emax: read-out: CRF1R Emax; for pEC50: CRF1R EC50
T2 sequence (P34998 24-415): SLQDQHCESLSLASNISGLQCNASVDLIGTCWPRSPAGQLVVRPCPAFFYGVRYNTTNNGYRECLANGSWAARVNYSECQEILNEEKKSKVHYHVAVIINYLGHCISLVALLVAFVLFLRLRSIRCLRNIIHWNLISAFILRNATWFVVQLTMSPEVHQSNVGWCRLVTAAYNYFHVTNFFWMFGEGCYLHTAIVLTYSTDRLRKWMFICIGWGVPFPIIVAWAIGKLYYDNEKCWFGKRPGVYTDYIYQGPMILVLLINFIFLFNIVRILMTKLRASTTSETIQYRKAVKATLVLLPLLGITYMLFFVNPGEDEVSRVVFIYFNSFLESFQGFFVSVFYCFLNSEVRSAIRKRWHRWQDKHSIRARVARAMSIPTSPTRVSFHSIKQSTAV
In short: as §1

Question: For `CC[C@H](C)[C@H](NC(=O)[C@H](CCCNC(=N)N)NC(=O)[C@H](C)NC(=O)[C@H](CC(C)C)NC(=O)[C@H](CC(C)C)NC(=O)[C@H](CCCNC(=N)N)NC(=O)[C@H](C)NC(=O)[C@H](CC(N)=O)NC(=O)[C@H](CC(N)=O)NC(=O)[C@H](C)NC(=O)[C@H](C)NC(=O)[C@H](CCC(N)=O)NC(=O)[C@H](CCC(N)=O)NC(=O)[C@H](CCCCN)NC(=O)[C@H](CCC(=O)O)NC(=O)[C@H](CCCCN)NC(=O)[C@H](CCC(=O)O)NC(=O)[C@H](CCC(N)=O)NC(=O)[C@H](CCCCN)NC(=O)[C@H](CCC(=O)O)NC(=O)[C@@H](NC(=O)[C@H](CCC(=O)O)NC(=O)[C@@H](NC(=O)[C@@H](NC(=O)[C@H](CCCCN)NC(=O)[C@H](CCCNC(=N)N)NC(=O)[C@H](CC(C)C)NC(=O)[C@H](CC(C)C)NC(=O)[C@@H](NC(=O)[C@@H](NC(=O)[C@@H]1CCCN1C(=O)[C@H](CC(C)C)NC(=O)[C@H](CC(=O)O)NC(=O)[C@@H](NC(=O)[C@H](CO)NC(=O)[C@@H](NC(=O)[C@@H]1CCCN1C(=O)[C@@H]1CCCN1C(=O)CNC(=O)[C@@H]1CCC(=O)N1)[C@@H](C)CC)[C@@H](C)CC)[C@@H](C)CC)[C@@H](C)CC)C(C)C)[C@@H](C)CC)[C@@H](C)CC)C(N)=O` [compound 295], which Emax (CRF2R) is on record?
Answer: The Emax was 67.6%.

Question: And the Emax (CRF1R)?
Answer: Its Emax is 5.3%.

Question: With `CC[C@H](C)[C@H](NC(=O)[C@@H](NC(=O)[C@H](CC(=O)O)NC(=O)[C@H](CC(C)C)NC(=O)[C@H](CC(C)C)NC(=O)[C@H](CC(C)C)NC(=O)[C@H](CCCNC(=N)N)NC(=O)[C@H](CC(N)=O)NC(=O)[C@H](CC(N)=O)NC(=O)[C@H](C)NC(=O)[C@H](C)NC(=O)[C@H](CCC(N)=O)NC(=O)[C@H](CCC(N)=O)NC(=O)[C@H](CCCCN)NC(=O)[C@H](CCC(=O)O)NC(=O)[C@H](CCCCN)NC(=O)[C@H](CCC(=O)O)NC(=O)[C@H](CCC(N)=O)NC(=O)[C@H](CCCCN)NC(=O)[C@H](CCC(=O)O)NC(=O)[C@@H](NC(=O)[C@H](CCC(=O)O)NC(=O)[C@@H](NC(=O)[C@H](CCSC)NC(=O)[C@H](CCCCN)NC(=O)[C@H](CCCNC(=N)N)NC(=O)[C@H](CC(C)C)NC(=O)[C@H](CC(C)C)NC(=O)[C@@H](NC(=O)[C@H](Cc1ccc(O)cc1)NC(=O)[C@@H]1CCCN1C(=O)[C@H](CC(C)C)NC(=O)[C@H](CC(=O)O)NC(=O)[C@@H](NC(=O)[C@H](CO)NC(=O)[C@@H](NC(=O)[C@@H]1CCCN1C(=O)[C@@H]1CCCN1C(=O)CNC(=O)[C@@H]1CCC(=O)N1)[C@@H](C)CC)[C@@H](C)CC)[C@@H](C)O)[C@@H](C)CC)[C@@H](C)CC)[C@@H](C)O)C(N)=O` [compound 200] as the molecule, how does the pEC50 (CRF2R) read?
Answer: Its pEC50 is 8.06.

Question: What about the Emax (CRF2R) of the same molecule?
Answer: The Emax was 100%.

Question: And the pEC50 (CRF1R)?
Answer: The pEC50 was 6.72.

Question: And the Emax (CRF1R)?
Answer: The Emax was 99%.

Question: Which results are given for `CC[C@H](C)[C@H](NC(=O)[C@H](CCCNC(=N)N)NC(=O)[C@H](C)NC(=O)[C@H](CC(N)=O)NC(=O)[C@@H](NC(=O)[C@@H](NC(=O)[C@H](C)NC(=O)[C@H](CCC(N)=O)NC(=O)[C@H](CCC(=O)O)NC(=O)[C@H](CCCNC(=N)N)NC(=O)[C@H](C)NC(=O)[C@H](C)NC(=O)[C@H](CCCNC(=N)N)NC(=O)[C@H](C)NC(=O)[C@H](CCCNC(=N)N)NC(=O)[C@H](C)NC(=O)[C@H](CCC(N)=O)NC(=O)[C@H](CCC(=O)O)NC(=O)[C@@H](NC(=O)[C@H](CCSC)NC(=O)[C@H](CCCCN)NC(=O)[C@H](CCCNC(=N)N)NC(=O)[C@H](CC(C)C)NC(=O)[C@H](CC(C)C)NC(=O)[C@H](CCC(=O)O)NC(=O)[C@H](CC(C)C)NC(=O)[C@H](CO)NC(=O)[C@H](CC(C)C)NC(=O)[C@H](CC(=O)O)NC(=O)[C@@H](NC(=O)[C@H](CO)NC(=O)[C@@H](NC(=O)[C@@H]1CCCN1C(=O)[C@@H]1CCCN1C(=O)CNC(=O)[C@@H]1CCC(=O)N1)[C@@H](C)CC)[C@@H](C)CC)[C@@H](C)CC)[C@@H](C)O)[C@@H](C)O)C(=O)N[C@@H](CC(C)C)C(=O)N[C@@H](C)C(=O)N[C@@H](CCCNC(=N)N)C(=O)N[C@H](C(N)=O)C(C)C` [compound 156]?
Answer: Emax (CRF2R): 79%; Emax (CRF1R): 6%

Question: Which Emax (CRF2R) does the source give for `CC[C@H](C)[C@H](NC(=O)[C@H](CCC(=O)O)NC(=O)[C@@H](NC(=O)[C@H](CCSC)NC(=O)[C@H](CCCCN)NC(=O)[C@H](CCCNC(=N)N)NC(=O)[C@H](CC(C)C)NC(=O)[C@H](CC(C)C)NC(=O)[C@H](Cc1ccc(O)cc1)NC(=O)[C@H](CC(C)C)NC(=O)[C@@H]1CCCN1C(=O)[C@H](CC(C)C)NC(=O)[C@H](CC(=O)O)NC(=O)[C@@H](NC(=O)[C@H](CO)NC(=O)[C@@H](NC(=O)[C@@H]1CCCN1C(=O)[C@@H]1CCCN1C(=O)CNC(=O)[C@@H]1CCC(=O)N1)[C@@H](C)CC)[C@@H](C)CC)[C@@H](C)CC)C(=O)N[C@@H](CCC(=O)O)C(=O)N[C@@H](CCCCN)C(=O)N[C@@H](CCC(N)=O)C(=O)N[C@@H](CCC(=O)O)C(=O)N[C@@H](CCCCN)C(=O)N[C@@H](CCC(=O)O)C(=O)N[C@@H](CCCCN)C(=O)N[C@@H](CCC(N)=O)C(=O)N[C@@H](CCC(N)=O)C(=O)N[C@@H](C)C(=O)N[C@@H](C)C(=O)N[C@@H](CC(N)=O)C(=O)N[C@@H](CC(N)=O)C(=O)N[C@@H](CCCNC(=N)N)C(=O)N[C@@H](CC(C)C)C(=O)N[C@@H](CC(C)C)C(=O)N[C@@H](CC(C)C)C(=O)N[C@@H](CC(=O)O)C(=O)N[C@H](C(N)=O)[C@@H](C)O` [compound 81] here?
Answer: Its Emax is 73%.

Question: What about the Emax (CRF1R) of the same molecule?
Answer: The Emax was 81%.

Question: How did the Emax (CRF2R) turn out when `CC[C@H](C)[C@H](NC(=O)[C@H](CCCNC(=N)N)NC(=O)[C@H](C)NC(=O)[C@H](CC(N)=O)NC(=O)[C@@H](NC(=O)[C@@H](NC(=O)[C@H](C)NC(=O)[C@H](CCC(N)=O)NC(=O)[C@H](CCC(N)=O)NC(=O)[C@H](CCCCN)NC(=O)[C@H](CCC(=O)O)NC(=O)[C@H](CCCCN)NC(=O)[C@H](CCC(=O)O)NC(=O)[C@H](CCC(N)=O)NC(=O)[C@H](CCCCN)NC(=O)[C@H](CCC(=O)O)NC(=O)[C@@H](NC(=O)[C@H](CCC(=O)O)NC(=O)[C@@H](NC(=O)[C@H](CCSC)NC(=O)[C@H](CCCCN)NC(=O)[C@H](CCCNC(=N)N)NC(=O)[C@H](CC(C)C)NC(=O)[C@H](CC(C)C)NC(=O)[C@H](Cc1c[nH]cn1)NC(=O)[C@H](CC(C)C)NC(=O)[C@@H]1CCCN1C(=O)[C@H](CC(C)C)NC(=O)[C@H](CC(=O)O)NC(=O)[C@@H](NC(=O)[C@H](CO)NC(=O)[C@@H](NC(=O)[C@@H]1CCCN1C(=O)[C@@H]1CCCN1C(=O)CNC(=O)[C@@H]1CCC(=O)N1)[C@@H](C)CC)[C@@H](C)CC)[C@@H](C)CC)[C@@H](C)CC)[C@@H](C)O)[C@@H](C)O)C(=O)N[C@@H](CC(C)C)C(=O)N[C@@H](C)C(=O)N[C@@H](CCCNC(=N)N)C(=O)N[C@H](C(N)=O)C(C)C` [compound 145] was run?
Answer: The Emax was 69%.

Question: What about the Emax (CRF1R) of the same molecule?
Answer: Its Emax is 91.3%.

Question: `CC[C@H](C)[C@H](NC(=O)[C@@H](NC(=O)[C@H](CC(=O)O)NC(=O)[C@H](CC(C)C)NC(=O)[C@H](CC(C)C)NC(=O)[C@H](CC(C)C)NC(=O)[C@H](CCCNC(=N)N)NC(=O)[C@H](CC(N)=O)NC(=O)[C@H](CC(N)=O)NC(=O)[C@H](C)NC(=O)[C@H](C)NC(=O)[C@H](CCC(N)=O)NC(=O)[C@H](CCC(N)=O)NC(=O)[C@H](CCCCN)NC(=O)[C@H](CCC(=O)O)NC(=O)[C@H](CCCCN)NC(=O)[C@H](CCC(=O)O)NC(=O)[C@H](CCC(N)=O)NC(=O)[C@H](CCCCN)NC(=O)[C@H](CCC(=O)O)NC(=O)[C@@H](NC(=O)[C@H](CCC(=O)O)NC(=O)[C@@H](NC(=O)[C@H](CCSC)NC(=O)[C@H](CCCCN)NC(=O)[C@H](CCCNC(=N)N)NC(=O)[C@H](CC(C)C)NC(=O)[C@H](CC(C)C)NC(=O)[C@H](CCC(N)=O)NC(=O)[C@H](Cc1ccccc1)NC(=O)[C@@H]1CCCN1C(=O)[C@@H](NC(=O)[C@H](CC(=O)O)NC(=O)[C@@H](NC(=O)[C@H](CO)NC(=O)[C@@H](NC(=O)[C@@H]1CCCN1C(=O)[C@@H]1CCCN1C(=O)CNC(=O)[C@@H]1CCC(=O)N1)[C@@H](C)CC)[C@@H](C)CC)C(C)C)[C@@H](C)CC)[C@@H](C)CC)[C@@H](C)O)C(N)=O` [compound 256] was tested. Which pEC50 (CRF2R) did it give?
Answer: The pEC50 was 7.90.

Question: And the Emax (CRF2R)?
Answer: The Emax was 100%.

Question: And the pEC50 (CRF1R)?
Answer: The pEC50 was 6.60.

Question: What about the Emax (CRF1R) of the same molecule?
Answer: Its Emax is 100%.

Source: patent publication US6936585B2, “Corticotropin releasing factor 2 receptor agonists” (priority 2002, dated 2005)
